# Assay results as given in publication PMC7020226 (Plants, 2019).
# Numbering of substitutions follows the chain as printed.
# Columns and labels:
# Test in all cases: H2O2 detection, horseradish peroxidase / o-dianisidine coupled assay
# Assay type in all cases: biochemical
# Settings in all cases: 50 mM Tris-HCl pH 8.0, 0.1 mM FMN, 30 °C
# ZmGO1 [1] = target: T1, ZmGO1 (Zea mays, UniProt A0A3L6E0R4)
# T1 construct: gene GO1; full length, N-terminal His-tag, pET28a, expressed in Escherichia coli
# T1 sequence (A0A3L6E0R4 1-369): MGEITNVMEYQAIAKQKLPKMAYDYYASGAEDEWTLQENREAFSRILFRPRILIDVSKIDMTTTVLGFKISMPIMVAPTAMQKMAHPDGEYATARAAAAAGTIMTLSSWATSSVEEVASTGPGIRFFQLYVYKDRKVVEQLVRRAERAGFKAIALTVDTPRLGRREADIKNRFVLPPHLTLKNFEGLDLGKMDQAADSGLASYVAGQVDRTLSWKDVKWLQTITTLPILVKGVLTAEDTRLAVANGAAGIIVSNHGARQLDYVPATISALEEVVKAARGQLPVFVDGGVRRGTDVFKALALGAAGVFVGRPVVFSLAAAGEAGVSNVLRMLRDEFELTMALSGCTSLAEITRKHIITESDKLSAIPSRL
# ZmGO1 [2] = target: T2, ZmGO1 (Zea mays, UniProt A0A3L6E0R4, T266D)
# T2 construct: gene GO1; full length, N-terminal His-tag, pET28a, expressed in Escherichia coli
# T2 sequence (A0A3L6E0R4 1-369 T266D): T1 sequence (A0A3L6E0R4 1-369) with T266D
# ZmGO1 [3] = target: T3, ZmGO1 (Zea mays, UniProt A0A3L6E0R4, T159V)
# T3 construct: gene GO1; full length, N-terminal His-tag, pET28a, expressed in Escherichia coli
# T3 sequence (A0A3L6E0R4 1-369 T159V): T1 sequence (A0A3L6E0R4 1-369) with T159V
# ZmGO1 [4] = target: T4, ZmGO1 (Zea mays, UniProt A0A3L6E0R4, T5D)
# T4 construct: gene GO1; full length, N-terminal His-tag, pET28a, expressed in Escherichia coli
# T4 sequence (A0A3L6E0R4 1-369 T5D): T1 sequence (A0A3L6E0R4 1-369) with T5D
smiles,measurement,setting,value
O=C(O)CO [glycolate],Km,ZmGO1 [1],126 ± 34 µM
same,Km,ZmGO1 [2],173 ± 65 µM
same,Km,ZmGO1 [3],46 ± 20 µM
same,Km,ZmGO1 [4],157 ± 31 µM
